Literature values as cited in US9999859B2, “Immobilized multi-layer artificial membrane for permeability measurements (PAMPA)” (CORNING INCORPORATED, priority 2005, dated 2018).

Conditions: prior art PAMPA membrane; PBS pH 7.4, room temperature, no agitation; cited from earlier work

Row | SMILES | Pe Prior Art Results
1 | O=C(O)Cc1ccccc1Nc1c(Cl)cccc1Cl [diclofenac] | 1.37 10^−6 cm/s
2 | CCN1CCCC1CNC(=O)c1cc(S(N)(=O)=O)ccc1OC (centres unmarked) [sulpiride] | 0.03 10^−6 cm/s
